The results in this text go back to publication PMC9742833.

By UniProt entry, the sequences of proteins in these tests, tags left out. Where a name states a change or a piece, a line headed by the entry shows the natural chain unless it says otherwise.
UniProt P05181: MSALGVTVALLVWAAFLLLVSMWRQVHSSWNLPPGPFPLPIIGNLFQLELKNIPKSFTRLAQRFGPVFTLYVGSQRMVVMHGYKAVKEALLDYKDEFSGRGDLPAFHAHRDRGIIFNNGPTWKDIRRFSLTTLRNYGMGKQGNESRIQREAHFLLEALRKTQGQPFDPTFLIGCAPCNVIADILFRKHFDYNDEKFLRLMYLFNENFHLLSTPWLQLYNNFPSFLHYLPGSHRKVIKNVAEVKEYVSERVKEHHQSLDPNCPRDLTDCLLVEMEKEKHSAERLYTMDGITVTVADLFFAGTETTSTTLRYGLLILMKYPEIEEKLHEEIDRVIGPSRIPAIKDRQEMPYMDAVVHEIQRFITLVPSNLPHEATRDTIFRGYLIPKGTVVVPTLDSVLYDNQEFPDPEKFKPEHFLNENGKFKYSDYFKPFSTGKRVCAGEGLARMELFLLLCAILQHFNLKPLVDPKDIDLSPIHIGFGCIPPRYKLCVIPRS
UniProt P20815, whole entry: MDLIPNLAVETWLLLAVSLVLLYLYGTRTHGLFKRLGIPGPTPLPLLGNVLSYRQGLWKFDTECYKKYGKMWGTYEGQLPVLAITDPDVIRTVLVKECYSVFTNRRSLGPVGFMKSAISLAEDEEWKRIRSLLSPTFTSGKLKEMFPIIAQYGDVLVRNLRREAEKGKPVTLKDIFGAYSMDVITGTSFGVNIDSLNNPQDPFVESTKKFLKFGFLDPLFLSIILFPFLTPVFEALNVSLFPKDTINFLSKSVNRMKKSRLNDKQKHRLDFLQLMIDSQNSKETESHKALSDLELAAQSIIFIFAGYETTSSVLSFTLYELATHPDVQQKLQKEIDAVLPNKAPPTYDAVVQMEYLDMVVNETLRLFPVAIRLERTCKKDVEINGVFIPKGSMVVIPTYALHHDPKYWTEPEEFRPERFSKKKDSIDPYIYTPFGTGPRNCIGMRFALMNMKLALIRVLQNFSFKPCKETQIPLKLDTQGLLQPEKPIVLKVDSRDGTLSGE
UniProt P33261, whole entry: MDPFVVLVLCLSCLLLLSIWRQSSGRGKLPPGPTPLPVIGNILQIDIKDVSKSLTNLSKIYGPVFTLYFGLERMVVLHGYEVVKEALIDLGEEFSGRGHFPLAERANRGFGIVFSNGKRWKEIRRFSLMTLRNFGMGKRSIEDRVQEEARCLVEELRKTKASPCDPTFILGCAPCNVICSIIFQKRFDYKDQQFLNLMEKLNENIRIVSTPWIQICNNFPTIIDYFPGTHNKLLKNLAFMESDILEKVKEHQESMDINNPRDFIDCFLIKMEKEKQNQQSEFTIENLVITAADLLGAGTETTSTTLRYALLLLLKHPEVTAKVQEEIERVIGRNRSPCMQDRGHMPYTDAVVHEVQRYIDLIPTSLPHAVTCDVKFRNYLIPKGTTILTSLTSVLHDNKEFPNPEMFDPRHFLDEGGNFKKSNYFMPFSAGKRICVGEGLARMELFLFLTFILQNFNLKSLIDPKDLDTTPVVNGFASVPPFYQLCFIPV

Structures can show the parent of a compound that is named as a salt.

Common to all, as to experiment: Time-dependent inhibition (IC50 shift, NADPH pre-incubation)
Common to all, as to format: biochemical
What all share (design): purchased Life Technologies

One series concerns the target CYP2E1 (Homo sapiens, UniProt P05181). The following applies: pH 8, probe Vivid EOMCC (ethoxymethyloxy-3-cyanocoumarin), shift > 2 = significant TDI.
The next series has as its target T1, CYP1A2 (Homo sapiens, UniProt P05177).
T1 sequence (P05177 2-516 limits assumed): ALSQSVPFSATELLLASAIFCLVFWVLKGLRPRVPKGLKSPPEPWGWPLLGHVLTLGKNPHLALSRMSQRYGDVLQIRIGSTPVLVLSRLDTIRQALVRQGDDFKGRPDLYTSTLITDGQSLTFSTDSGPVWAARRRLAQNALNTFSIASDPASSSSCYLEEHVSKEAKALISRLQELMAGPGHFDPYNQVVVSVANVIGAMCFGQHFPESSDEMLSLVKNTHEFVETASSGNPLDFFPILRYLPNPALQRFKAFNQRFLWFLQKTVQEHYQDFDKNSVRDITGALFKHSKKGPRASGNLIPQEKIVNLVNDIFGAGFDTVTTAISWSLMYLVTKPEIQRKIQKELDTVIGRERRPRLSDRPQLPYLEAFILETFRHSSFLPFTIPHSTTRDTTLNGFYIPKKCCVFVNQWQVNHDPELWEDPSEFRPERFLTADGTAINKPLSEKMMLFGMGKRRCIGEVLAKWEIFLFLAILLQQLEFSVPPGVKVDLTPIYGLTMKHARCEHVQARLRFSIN
The note with it: pH 8, probe Vivid EOMCC (ethoxymethyloxy-3-cyanocoumarin), shift > 2 = significant TDI.

The next series addresses T2, CYP2J2 (Homo sapiens, UniProt P51589).
T2 sequence (P51589 1-502): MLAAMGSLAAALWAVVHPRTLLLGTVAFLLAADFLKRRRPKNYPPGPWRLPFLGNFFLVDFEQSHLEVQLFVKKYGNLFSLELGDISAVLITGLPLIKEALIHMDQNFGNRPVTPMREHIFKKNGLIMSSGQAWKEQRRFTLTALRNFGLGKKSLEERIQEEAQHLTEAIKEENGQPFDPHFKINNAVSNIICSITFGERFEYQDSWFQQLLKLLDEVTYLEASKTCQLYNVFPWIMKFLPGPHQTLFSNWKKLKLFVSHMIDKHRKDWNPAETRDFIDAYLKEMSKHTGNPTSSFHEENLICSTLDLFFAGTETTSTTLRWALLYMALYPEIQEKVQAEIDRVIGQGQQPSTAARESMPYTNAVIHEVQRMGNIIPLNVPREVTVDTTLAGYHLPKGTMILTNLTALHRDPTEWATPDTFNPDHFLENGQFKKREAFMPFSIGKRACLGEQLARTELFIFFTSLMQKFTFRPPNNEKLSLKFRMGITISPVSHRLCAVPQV
The note with it: pH 8, probe Vivid MOBFC (7-p-methoxy-benzyloxy-4-trifluorocoumarin), shift > 2 = significant TDI.

In a further series the target is CYP3A5 (Homo sapiens, UniProt P20815). The following applies: pH 8, probe Vivid BOMCC (7-benzyloxymethyloxy-3-cyanocoumarin), shift > 2 = significant TDI.
A further series concerns the target T3, CYP2B6 (Homo sapiens, UniProt P20813).
T3 sequence (P20813 1-491): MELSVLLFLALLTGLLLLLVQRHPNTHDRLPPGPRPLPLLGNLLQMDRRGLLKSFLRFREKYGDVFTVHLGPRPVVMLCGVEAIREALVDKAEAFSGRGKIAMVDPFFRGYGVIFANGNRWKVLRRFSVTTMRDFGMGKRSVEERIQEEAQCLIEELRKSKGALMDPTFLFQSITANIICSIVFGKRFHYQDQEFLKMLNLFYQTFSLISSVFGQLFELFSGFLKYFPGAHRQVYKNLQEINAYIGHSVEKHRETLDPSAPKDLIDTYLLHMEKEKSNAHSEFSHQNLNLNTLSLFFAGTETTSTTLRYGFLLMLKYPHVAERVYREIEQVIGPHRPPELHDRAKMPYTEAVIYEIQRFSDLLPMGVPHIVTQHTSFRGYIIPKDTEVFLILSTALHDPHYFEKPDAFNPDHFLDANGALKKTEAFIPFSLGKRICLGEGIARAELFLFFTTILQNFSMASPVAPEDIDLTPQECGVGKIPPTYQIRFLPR
The note with it: pH 8, probe Vivid BOMCC (7-benzyloxymethyloxy-3-cyanocoumarin), shift > 2 = significant TDI.

A further series addresses CYP2C19 (Homo sapiens, UniProt P33261). The following applies: pH 8, probe Vivid EOMCC (ethoxymethyloxy-3-cyanocoumarin), shift > 2 = significant TDI.

On to `C[C@H](N)C(=O)c1ccccc1` [Cathinone, (S)− 2-Amino-1-phenyl-1-propanone.hydrochloride], for which the IC50 shift at 60 min on CYP2E1 amounted to 0.73; on CYP1A2, 0.23; on CYP2J2, 0.84; at CYP2B6, 1.5; at CYP2C19, 0.53. At CYP3A5, the IC50 shift at 120 min was 1.8.
